Experimental data: US4857549A, “Antitumor compounds” (priority 1988, dated 1989)

The compounds below were run on M5076 reticulum cell sarcoma (assay: ip M5076 reticulum cell sarcoma assay in mice). Conditions: in words, based on Tables C and D.
Procedure: Another chemosensitive tumor model is intraperitoneally (ip) implanted M5076 reticulum cell sarcoma in mice. In this system B6D2F1 female mice are inoculated with 0.5 ml of a 10 percent weight:volume (w:v) brei of M5076 prepared from pooled subcutaneous (sc) tumors excised at about 21 days from c57B1/6 donor mice. Drugs are administered ip. Daily treatment is begun 24 hours after implantation and is continued for ten days. The treatment regimen for M5076 is more prolonged than for P388 because of the slower growth rate and longer control survival time of the M5076 tumor.

Structure (SMILES) | activity in the ip M5076 reticulum cell sarcoma assay
[Cl][Au]([Cl])([Cl])[PH](CC[PH](c1ccccc1)(c1ccccc1)[Au]([Cl])([Cl])[Cl])(c1ccccc1)c1ccccc1 [Compound 12, μ-[1,2-Bis(Diphenylphosphino)Ethane]Bis[Trichlorogold(III)]] | good activity
[Br][Au][PH](CC[PH]([Au][Br])(c1ccccc1)c1ccccc1)(c1ccccc1)c1ccccc1 [Compound 15] | good activity
FC(F)(F)[S][Au][PH](CC[PH]([Au][S]C(F)(F)F)(c1ccccc1)c1ccccc1)(c1ccccc1)c1ccccc1 [Compound 18, μ-[1,2-Bis(diphenylphosphino)ethane]Bis[trifluoromethyl-thiogold(I)]] | good activity
[Cl][Au][PH](CC[PH]([Au][Cl])(C1CCCCC1)C1CCCCC1)(C1CCCCC1)C1CCCCC1 [Compound 22, μ-[1,2-Bis(Dicyclohexylphosphino)Ethane]Bis[Chlorogold(I)]] | good activity
c1ccc(P(CCP(c2ccccc2)c2ccccc2)c2ccccc2)cc1 [Compound 33, bis(1,2-diphenylphosphino)-ethane] | good activity
CC(CP(c1ccccc1)c1ccccc1)P(c1ccccc1)c1ccccc1 (stereo not drawn) [Compound 35, Bis(1,2-diphenylphosphino)propane] | good activity
